Assay results from ChEMBL document CHEMBL1649318, “Chromosomally encoded blaCMY-2 located on a novel SXT/R391-related integrating conjugative element in a Proteus mirabilis clinical isolate” (2010).

Test system: Escherichia coli
Conditions: TUM4672

## GENTAMICIN
  MIC: 0.5 µg/mL
